In patent US20250034165A1, “COMPOUND CONTAINING CYCLOALKYL OR HALOALKYL” (CHIA TAI TIANQING PHARMACEUTICAL GROUP CO., LTD., priority 2021, published 2025) one finds IC50 data, which are given here for 8 molecules.

Sequences of proteins named here, by UniProt entry; tags and fusion partners are left off. A change or cut given only in a name is not applied to a line headed by its entry. A line that says so, or that is headed by a name, gives the form on record, which may keep a tag or linker. Residues count along the entry.
UniProt P00533, 25-1210 limits assumed: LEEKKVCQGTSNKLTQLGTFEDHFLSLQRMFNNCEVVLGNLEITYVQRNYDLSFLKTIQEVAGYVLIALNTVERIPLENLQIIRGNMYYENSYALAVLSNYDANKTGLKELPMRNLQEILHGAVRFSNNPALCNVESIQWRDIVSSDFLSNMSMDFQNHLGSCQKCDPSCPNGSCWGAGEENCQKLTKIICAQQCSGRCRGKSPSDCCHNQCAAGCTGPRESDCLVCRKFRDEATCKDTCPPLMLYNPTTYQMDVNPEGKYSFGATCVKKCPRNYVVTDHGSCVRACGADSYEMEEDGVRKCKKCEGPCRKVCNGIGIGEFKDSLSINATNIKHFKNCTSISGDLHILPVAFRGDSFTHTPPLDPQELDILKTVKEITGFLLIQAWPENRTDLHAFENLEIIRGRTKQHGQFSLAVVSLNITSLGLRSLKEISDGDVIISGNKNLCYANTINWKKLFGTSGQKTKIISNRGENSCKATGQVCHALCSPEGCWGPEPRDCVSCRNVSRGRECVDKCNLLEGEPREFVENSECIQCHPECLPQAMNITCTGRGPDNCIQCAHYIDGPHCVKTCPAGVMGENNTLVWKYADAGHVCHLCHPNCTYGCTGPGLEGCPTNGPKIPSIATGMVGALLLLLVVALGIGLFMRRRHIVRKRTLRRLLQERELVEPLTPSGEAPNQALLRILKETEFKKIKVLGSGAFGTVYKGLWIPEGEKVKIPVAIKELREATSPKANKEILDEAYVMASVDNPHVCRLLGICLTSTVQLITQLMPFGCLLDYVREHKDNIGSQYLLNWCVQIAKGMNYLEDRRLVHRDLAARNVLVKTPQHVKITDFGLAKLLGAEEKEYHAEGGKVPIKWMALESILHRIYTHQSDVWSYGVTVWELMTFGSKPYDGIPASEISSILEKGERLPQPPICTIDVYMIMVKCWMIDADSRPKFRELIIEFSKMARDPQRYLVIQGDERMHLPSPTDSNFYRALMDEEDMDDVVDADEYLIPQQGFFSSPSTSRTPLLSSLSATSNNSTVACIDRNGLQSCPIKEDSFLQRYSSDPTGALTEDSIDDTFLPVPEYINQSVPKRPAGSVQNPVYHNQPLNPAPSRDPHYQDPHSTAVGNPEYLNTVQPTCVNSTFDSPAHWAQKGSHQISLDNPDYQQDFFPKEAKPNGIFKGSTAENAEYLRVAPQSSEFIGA
UniProt P00533, 25-1210 T790M/C797S/L858R limits assumed: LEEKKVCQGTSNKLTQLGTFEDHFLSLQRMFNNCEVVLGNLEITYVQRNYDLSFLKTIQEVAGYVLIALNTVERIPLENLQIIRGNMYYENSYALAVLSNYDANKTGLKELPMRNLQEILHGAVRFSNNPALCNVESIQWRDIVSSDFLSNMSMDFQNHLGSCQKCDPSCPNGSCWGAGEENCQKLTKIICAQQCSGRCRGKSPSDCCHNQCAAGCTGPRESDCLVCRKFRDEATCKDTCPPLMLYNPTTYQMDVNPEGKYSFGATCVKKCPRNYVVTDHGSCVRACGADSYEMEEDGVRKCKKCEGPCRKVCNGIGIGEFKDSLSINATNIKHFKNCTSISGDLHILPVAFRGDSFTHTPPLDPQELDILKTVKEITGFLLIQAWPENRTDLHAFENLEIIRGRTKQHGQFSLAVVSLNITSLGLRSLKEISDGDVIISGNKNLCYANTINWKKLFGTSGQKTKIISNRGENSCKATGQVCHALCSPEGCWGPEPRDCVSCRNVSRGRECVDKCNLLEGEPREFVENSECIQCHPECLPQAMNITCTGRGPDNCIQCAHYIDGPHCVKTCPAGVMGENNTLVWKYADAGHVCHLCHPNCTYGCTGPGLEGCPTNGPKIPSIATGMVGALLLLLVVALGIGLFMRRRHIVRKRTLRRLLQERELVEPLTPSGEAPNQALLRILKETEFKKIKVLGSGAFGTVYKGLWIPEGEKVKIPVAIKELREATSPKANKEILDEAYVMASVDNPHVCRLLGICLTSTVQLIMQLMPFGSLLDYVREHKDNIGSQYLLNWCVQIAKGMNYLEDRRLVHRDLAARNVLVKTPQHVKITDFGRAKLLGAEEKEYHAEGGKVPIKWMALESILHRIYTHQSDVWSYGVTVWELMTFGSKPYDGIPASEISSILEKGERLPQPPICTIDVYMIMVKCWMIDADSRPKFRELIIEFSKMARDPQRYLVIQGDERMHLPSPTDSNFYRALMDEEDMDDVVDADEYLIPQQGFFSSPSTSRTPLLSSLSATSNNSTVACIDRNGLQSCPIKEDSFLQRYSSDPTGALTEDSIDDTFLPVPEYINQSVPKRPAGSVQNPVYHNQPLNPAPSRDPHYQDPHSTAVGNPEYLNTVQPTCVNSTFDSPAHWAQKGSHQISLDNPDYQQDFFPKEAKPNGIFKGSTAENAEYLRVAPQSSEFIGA
UniProt P00533, with tags, fused parts or gaps limits assumed, stated change not applied: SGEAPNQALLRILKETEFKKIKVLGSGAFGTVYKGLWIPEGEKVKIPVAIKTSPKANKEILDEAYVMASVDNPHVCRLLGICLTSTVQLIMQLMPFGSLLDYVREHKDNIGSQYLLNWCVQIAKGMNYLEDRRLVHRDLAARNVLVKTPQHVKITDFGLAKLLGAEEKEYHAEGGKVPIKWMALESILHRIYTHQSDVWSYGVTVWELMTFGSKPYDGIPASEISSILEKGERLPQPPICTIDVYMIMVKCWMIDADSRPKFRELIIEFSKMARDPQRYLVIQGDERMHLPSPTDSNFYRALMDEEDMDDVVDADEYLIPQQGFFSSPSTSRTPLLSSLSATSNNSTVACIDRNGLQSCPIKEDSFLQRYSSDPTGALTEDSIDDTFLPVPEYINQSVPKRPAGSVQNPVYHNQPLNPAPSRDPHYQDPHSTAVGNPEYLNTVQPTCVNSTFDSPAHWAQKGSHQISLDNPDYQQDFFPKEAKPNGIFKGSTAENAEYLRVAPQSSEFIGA

The target in assay [1] is EGFR (WT) (Homo sapiens (Human), UniProt P00533). Description: Inhibitory activity for EGFR (WT) kinase. Conditions: read-out: EGFR(WT) (IC50); ATP 5 μM. How it is done:
A 50 ng/μL EGFR (WT, Carna) stock solution was diluted with a kinase buffer (50 mM HEPES, 10 mM MgCl2, 2 mM DTT, 1 mM EGTA, 0.01% Tween 20), and 6 μL of 1.67× working solution at 0.005 ng/μL (final concentration: 0.003 ng/μL) was added to each well. Different compounds dissolved in DMSO were added to the wells using a nanoliter pipettor, resulting in the final concentrations of the compounds of 100 nM to 0.0244 nM (4-fold gradient for 7 concentrations in total), and blank control wells (without enzyme) and negative control wells (with enzyme, plus vehicle DMSO) were set, 2 replicate wells for each concentration. After enzyme was reacted with the compound or vehicle for 30 min, 5×ATP at 25 μM (final concentration: 5 μM, Sigma) prepared with a kinase buffer was mixed with 5× substrate at 0.5 μM (final concentration: 0.1 μM, ULight-poly GT, PerkinElmer) at a ratio of 1:1 (v:v), and the mixture was added to each well at 4 μL/well. After being sealed with a film, the plate was incubated at room temperature for 2 h, and then 5 μL of 4×EDTA at 40 mM (final concentration: 10 mM) was added to each well. After the plate was incubated for 5 min at room temperature, 5 μL of 4× detection reagent at 8 nM (final concentration: 2 nM, Eu-anti-phospho-tyrosine antibody, PerkinElmer) was added to each well. After being incubated at room temperature for 1 h, the plate was read using a PerkinElmer Envision multi-mode microplate reader (excitation: 320 nm, emission: 665 nm), and IC50 was calculated by four-parameter fitting.

Assay [2] deals with EGFR (L858R/T790M/C797S) (Homo sapiens (Human), UniProt P00533, C797S/L858R/T790M). Description: Inhibitory activity for EGFR (L858R/T790M/C797S) kinase. To be noted: read-out: EGFR(L858R/T790M/C797S) (IC50); ATP 5 μM. The procedure: A 50 ng/μL EGFR (L858R/T790M/C797S, BPS) stock solution was diluted with a kinase buffer (50 mM HEPES, 10 mM MgCl2, 2 mM DTT, 1 mM EGTA, 0.01% Tween 20), and 6 μL of 1.67× working solution at 0.00167 ng/μL (final concentration: 0.001 ng/μL) was added to each well. Different compounds dissolved in DMSO were added to wells using a nanoliter pipettor, resulting in the final concentrations of the compounds of 10 nM to 0.0024 nM (4-fold gradient, 7 concentrations in total), and blank control wells (without enzyme) and negative control wells (with enzyme, plus vehicle DMSO) were set, 2 replicate wells for each concentration. After enzyme was reacted with the compound or vehicle for 30 min, 5×ATP at 25 μM (final concentration: 5 μM, Sigma) prepared with a kinase buffer was mixed with 5× substrate at 0.5 μM (final concentration: 0.1 μM, ULight-poly GT, PerkinElmer) at a ratio of 1:1 (v:v), and the mixture was added to each well at 4 μL/well. After being sealed with a film, the plate was incubated at room temperature for 2 h, and then 5 μL of 4×EDTA at 40 mM (final concentration: 10 mM) was added to each well. After the plate was incubated for 5 min at room temperature, 5 μL of 4× detection reagent at 8 nM (final concentration: 2 nM, Eu-anti-phospho-tyrosine antibody, PerkinElmer) was added to each well. After being incubated at room temperature for 1 h, the plate was read using a PerkinElmer Envision multi-mode microplate reader (excitation: 320 nm, emission: 665 nm), and IC50 was calculated by four-parameter fitting.

Assay [3] addresses EGFR (d746-750/T790M/C797S) (Homo sapiens (Human), UniProt P00533, C797S/DEL746-750/T790M). Description: Inhibitory activity for EGFR (d746-750/T790M/C797S) kinase. To be noted: read-out: EGFR(d19/T790M/C797S) (IC50); ATP 5 μM. The procedure: 1.5 Screening for Inhibitory Activity for EGFR (d746-750/T790M/C797S) Kinase
A 50 ng/μL EGFR (d746-750/T790M/C797S, BPS) stock solution was diluted with a kinase buffer (50 mM HEPES, 10 mM MgCl2, 2 mM DTT, 1 mM EGTA, 0.01% Tween 20), and 6 μL of 1.67× working solution at 0.05 ng/μL (final concentration: 0.03 ng/μL) was added to each well. Different compounds dissolved in DMSO were added to the wells using a nanoliter pipettor, resulting in the final concentrations of the compounds of 10 nM to 0.0024 nM (4-fold gradient for 7 concentrations in total), and blank control wells (without enzyme) and negative control wells (with enzyme, plus vehicle DMSO) were set, 2 replicate wells for each concentration. After enzyme was reacted with the compound or vehicle for 30 min, 5×ATP at 25 μM (final concentration: 5 μM, Sigma) prepared with a kinase buffer was mixed with 5× substrate at 0.5 μM (final concentration: 0.1 μM, ULight-poly GT, PerkinElmer) at a ratio of 1:1 (v:v), and the mixture was added to each well at 4 μL/well. After being sealed with a film, the plate was incubated at room temperature for 2 h, and then 5 μL of 4×EDTA at 40 mM (final concentration: 10 mM) was added to each well. After the plate was incubated for 5 min at room temperature, 5 μL of 4× detection reagent at 8 nM (final concentration: 2 nM, Eu-anti-phospho-tyrosine antibody, PerkinElmer) was added to each well. After being incubated at room temperature for 1 h, the plate was read using a PerkinElmer Envision multi-mode microplate reader (excitation: 320 nm, emission: 665 nm), and IC50 was calculated by four-parameter fitting.

Take `Cc1cc2cc(n1)-c1cnn(C3CC3)c1OCCC[C@@H](C)CN1C(=NC2=O)Nc2cc(NC3COC3)ccc21`: the IC50 was 2.8 nM in assay [1], 0.081 nM in assay [2] and 0.062 nM in assay [3].
As to `CCN(CC)CCNc1ccc2c(c1)N1C[C@H](C3CC3)CCCOc3c(cnn3C)-c3cc(cc(C)n3)C(=O)N=C1N2`, the figures for the IC50 in assay [1], in assay [2] and in assay [3] were 1.6 nM, 0.021 nM and 0.02 nM, respectively.
The like results for `CNCCNc1ccc2c(c1)N1C[C@H](C3CC3)CCCOc3c(cnn3C)-c3cc(cc(C)n3)C(=O)N=C1N2` were, in that order, 0.64 nM, 0.022 nM and 0.021 nM.
`Cc1cc2cc(n1)-c1cnn(C3CC3)c1OCCC[C@@H](C)CN1C(=NC2=O)Nc2ccc(NC3CCN(C)CC3)cc21`: the results for the IC50 in assay [1], in assay [2] and in assay [3] were 0.59 nM, 0.026 nM and 0.019 nM, respectively.
With `Cc1cc2cc(n1)-c1cnn(C)c1OCCC[C@@H](C1CC1)CN1C(=NC2=O)Nc2cc(NC(C)C3COC3)ccc21` (single isomer, unassigned), the figures for the IC50 in assay [1] and in assay [2] were 2.1 nM and 0.062 nM, respectively.
On to `Cc1cc2cc(n1)-c1cnn(C)c1OCCC[C@@H](CC1CC1)CN1C(=NC2=O)Nc2cc(NC3COC3)ccc21`, for which the IC50 is more than 10 nM in assay [1], 0.28 nM in assay [2] and 0.056 nM in assay [3].
The like results for `Cc1cc2cc(n1)-c1cnn(C)c1OCCC[C@@H](C1CC1)CN1C(=NC2=O)Nc2ccc(CN3CCN(C)CC3)cc21` were, in that order, 2.5 nM, 0.031 nM and 0.02 nM.
Consider `Cc1cc2cc(n1)-c1cnn(C)c1OCCC[C@@H](C1CC1)CN1C(=NC2=O)Nc2cc(NC3COC3)ccc21`, for which the IC50 was determined as 0.933 nM in assay [1], 0.018 nM in assay [2] and 0.022 nM in assay [3].
